Experiments:
HiBiT-tagged MDM2 = HiBiT-tagged MDM2 (Homo sapiens, UniProt Q00987); assay: MDM2 HiBit HEK293T degradation; conditions: read-out: MDM2 HiBit HEK293T degradation 4 h: Average external-Abs DC50, HEK293T cells stably expressing C-terminally HiBiT-tagged MDM2
Method: HEK293T cells were grown overnight to 70-80% confluency in a 6-well plate in complete media (DMEM 10% FBS) in a 37° C. incubator with 5% CO2. Cells were transfected with 1 micrograms of C- or N-terminally HiBiT-tagged MDM2 constructs using Fugene 6 transfection reagent (Promega) as per manufacturer protocol. After overnight incubation at 37° C., growth media within the wells was replaced with selection media (DMEM+10% FBS+1 microgram/ml final concentration of Puromycin). Puromycin (selection antibiotic) concentrations required for complete cell kill were determined previously. Cells were monitored for the next 48h-96h to select for positively transfected cells. Surviving colonies were pooled and expanded in selection media. Expanded pools of HEK293T cells stably expressing C- and N-terminally HiBiT-tagged MDM2, were characterized using a MDM2 tool degrader and HaloPROTAC3 as positive control. HEK293T cells expressing C-terminally HiBiT-tagged MDM2 were subsequently used for assessment of degradation potencies for MDM2 degraders.
The letter codes for MDM2 degradation potency (DC50) include: A (<10 nM), B […], C (>100-1000 nM), and D (>1000 nM).

The chains behind the UniProt entries cited, without tags or fusion partners.
UniProt Q00987, whole entry: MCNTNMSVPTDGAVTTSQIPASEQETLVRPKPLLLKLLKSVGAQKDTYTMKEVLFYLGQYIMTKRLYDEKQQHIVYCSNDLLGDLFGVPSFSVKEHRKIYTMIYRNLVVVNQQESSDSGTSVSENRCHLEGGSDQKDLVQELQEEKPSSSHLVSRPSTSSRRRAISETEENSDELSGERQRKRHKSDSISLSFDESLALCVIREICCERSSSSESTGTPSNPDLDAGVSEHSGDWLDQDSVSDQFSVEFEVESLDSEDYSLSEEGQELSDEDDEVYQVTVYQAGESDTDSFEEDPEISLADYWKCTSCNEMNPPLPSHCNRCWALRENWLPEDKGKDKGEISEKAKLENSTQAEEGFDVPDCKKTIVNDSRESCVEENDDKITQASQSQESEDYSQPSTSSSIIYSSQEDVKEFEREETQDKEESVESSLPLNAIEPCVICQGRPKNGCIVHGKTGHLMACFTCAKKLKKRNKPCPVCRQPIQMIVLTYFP

RS411 cells = assay: Cell Viability CTG Assay; conditions: read-out: Average external-IC50, CellTiter Glo (CTG) cell viability
Method: Compounds or DMSO 60 nL were stamped to the cell plate as the platemap. RS411 cells were centrifuged at 800 rpm for 5 min, suspended with culture medium, and counted with Countess (Invitrogen). The cell density was adjusted to the recommend information. 30 μL of cell solution (1000 cells/well) was added to the assay plate as the platemap and 30 μL of media was added to column 2 and column 23 as the platemap. The plate was spun down briefly. The final concentration of the compounds started at 10 μM (3 fold dilution and 11 doses) and final DMSO concentration was 0.2%. The plate was spun down briefly and incubated at 37° C., 5% CO2 for 1 day. […] 30 μL CellTiter Glo reagent was added to each well and the plate was centrifuged at 1000 rpm for 30 sec. The plate was shaken for 1 min and centrifuged at 1000 rpm for 30 sec. The plate was incubated at RT for 10 min to stabilize the luminescent signal and the luminescence was read by EnVision.
The letter codes for IC50 indicate the concentration of compound required to affect 50% of cells: A (<0.005 μM), B (0.005-0.05 μM), C (0.05-0.5 μM), and D (>0.5 μM).

| SMILES | DC50 (HiBiT-tagged MDM2) [nM] | IC50 (RS411 cells) [nM] |
| --- | --- | --- |
| Cn1c(=O)n(C2CCC(=O)NC2=O)c2ccc(C3CCN(C[C@]4(O)CC[C@@H](NC(=O)[C@@H]5NC6(CCCCC6)[C@@]6(C(=O)Nc7cc(Cl)ccc76)[C@H]5c5cccc(Cl)c5F)CC4)CC3)cc21 (stereo partly drawn) | < 10 | < 5 |
| CN1C(=O)CCC(n2c(=O)n(C)c3cc(C4CCN(C(=O)[C@H]5CC[C@H](NC(=O)[C@@H]6NC7(CCCCC7)[C@@]7(C(=O)Nc8cc(Cl)ccc87)[C@H]6c6cccc(Cl)c6F)CC5)CC4)ccc32)C1=O (stereo partly drawn) | > 1000 |  |
| Cn1c(=O)n(C2CCC(=O)NC2=O)c2ccc(CCN3CCN(C[C@H]4CC[C@H](NC(=O)[C@@H]5NC6(CCCCC6)[C@@]6(C(=O)Nc7cc(Cl)ccc76)[C@H]5c5cccc(Cl)c5F)CC4)[C@H](C(=O)O)C3)cc21 (stereo partly drawn) | < 10 |  |
| Cn1c(=O)n(C2CCC(=O)NC2=O)c2ccc(C3CCN(CCN4CC(NC(=O)[C@@H]5NC6(CCCCC6)[C@@]6(C(=O)Nc7cc(Cl)ccc76)[C@H]5c5cccc(Cl)c5F)C4)CC3)cc21 (stereo partly drawn) | < 10 |  |
| CN1[C@@H](C(=O)N[C@H]2CC[C@H](C(=O)N3CCN(CCc4ccc5c(c4)n(C)c(=O)n5C4CCC(=O)NC4=O)CC3)CC2)[C@H](c2cccc(Cl)c2F)[C@]2(C(=O)Nc3cc(Cl)ccc32)C12CCCCC2 (stereo partly drawn) | < 10 | < 5 |
| Cn1c(=O)n(C2CCC(=O)NC2=O)c2ccc(CCCC3(C(=O)O)CCN(C(=O)[C@H]4CC[C@H](NC(=O)[C@@H]5NC6(CCCCC6)[C@@]6(C(=O)Nc7cc(Cl)ccc76)[C@H]5c5cccc(Cl)c5F)CC4)CC3)cc21 (stereo partly drawn) | 10 to 100 | 5 to 50 |

From US20250034147A1, “MDM2 DEGRADERS AND USES THEREOF” (Kymera Therapeutics, Inc., priority 2021, published 2025)
